{"source": "patent US5561161A", "about": "“Methods of administering and pharmaceutical formulations containing n-substituted benzamides and/or acid addition salts thereof” (priority 1994, dated 1996)", "conditions": "about one to about 5 mg/kg", "data": [{"smiles": "CCN(CC)CCNC(=O)c1cc(Cl)c(N)cc1OC", "note": "[metoclopramide]", "values": [{"measurement": "rate of availability of a given dose by i.m. compared with i.v. injection", "result": "comparable to that of the same dose administered by i.v. injection"}]}]}
